1 molecule from US20260132196A1 (Amgen, published 2026) can be followed below.

For this assay, the target named is T1, HUMAN CLDN-6 (UniProt P56747) (human, UniProt P56747 1-220).
T1 sequence: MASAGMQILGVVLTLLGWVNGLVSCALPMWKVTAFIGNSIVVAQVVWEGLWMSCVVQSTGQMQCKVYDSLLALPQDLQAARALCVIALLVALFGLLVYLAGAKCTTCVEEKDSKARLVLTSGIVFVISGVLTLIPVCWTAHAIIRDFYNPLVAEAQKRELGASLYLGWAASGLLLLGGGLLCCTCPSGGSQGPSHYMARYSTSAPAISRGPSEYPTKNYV
Put plainly: cell-based or functional assay.

B1: A3S/HLE-BITE I2E (SEQ ID NO: 203) (bispecific antibody)
chain: [sequence of about 100 residues not given]GGGGSGGGGSGGGGSQVQLVQSGAEVKKPGASVKVSCKASGYTFTGYYMHWVRQAPGQCLEWMGWINPNSGETNYAQKFQGRVTMTRDTSISTAYMELSRLRSDDTAVYYCARDNLIVVAPVTRDYYYYGMDVWGQGTTVTVSSSGGGGSEVQLVESGGGLVQPGGSLKLSCAASGFTFNKYAINWVRQAPGKGLEWVARIRSKYNNYATYYADAVKDRFTISRDDSKNTVYLQMNNLKTEDTAVYYCARAGNFGSSYISYWAYWGQGTLVTVSSGGGGSGGGGSGGGGSQTVVTQEPSLTVSPGGTVTIT[sequence of about 80 residues not given]FGSGTKLTVLGGGG[sequence of human IgG1 Fc with R292C N297G V302C (EU numbers) not given]GGGGSGGGGSGGGGSGGGGSGGGGSGGGGS[sequence of human IgG1 Fc with R292C N297G V302C (EU numbers) not given]
As to B1, the “TDCC EC50, OAW28 cells” value is 0.0653 nM; the “TDCC EC50, OVCAR-3 cells” value was 0.0281 nM; the “TDCC EC50, PA-1 cells” value worked out at 0.0047 nM.
